Laboratory results from paper PMC4871480, “A Miniaturized Screen of a Schistosoma mansoni Serotonergic G Protein-Coupled Receptor Identifies Novel Classes of Parasite-Selective Inhibitors” (PLoS Pathogens, 2016).

By UniProt entry, the sequences of proteins in these tests, tags left out. Residues count along the entry.
UniProt P34969, 1-445 isoform P34969-2: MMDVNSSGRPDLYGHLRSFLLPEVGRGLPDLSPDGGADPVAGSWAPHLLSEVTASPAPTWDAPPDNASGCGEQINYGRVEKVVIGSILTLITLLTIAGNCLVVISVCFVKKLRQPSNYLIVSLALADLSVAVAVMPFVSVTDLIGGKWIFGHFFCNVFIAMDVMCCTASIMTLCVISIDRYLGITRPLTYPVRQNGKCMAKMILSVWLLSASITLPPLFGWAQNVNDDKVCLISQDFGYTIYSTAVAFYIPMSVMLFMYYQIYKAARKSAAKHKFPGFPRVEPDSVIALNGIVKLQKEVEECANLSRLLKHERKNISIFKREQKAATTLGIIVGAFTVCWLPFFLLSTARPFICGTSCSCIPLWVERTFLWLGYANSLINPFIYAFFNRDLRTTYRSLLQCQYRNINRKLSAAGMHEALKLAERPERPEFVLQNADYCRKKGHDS

Target: T1, Hs.5HT7R (Homo sapiens, UniProt P34969)
T1 construct: host or cells: HEK293 (ATCC CRL-1573.3), transient transfection, pCS2(-) vector
Assay: GloSensor cAMP assay in HEK293 cells expressing Hs.5HT7R
Assay type: cell-based
Conditions: Fig 4
Protocol: HEK293 cells (ATCC CRL-1573.3) were cultured in DMEM supplemented with 10% fetal bovine serum (FBS), penicillin (100 units/ml), streptomycin (100 μg/ml), and L-glutamine (290 μg/ml). Cells were transiently transfected (ViaFect, Promega) as per the manufacturer’s protocol at a density of 2x10^6 cells per T-25 cell-culture flask. Cells were transfected with plasmids encoding GloSensor (Promega) and either Sm.5HTR (Smp_126730, GenBank accession number KF444051.1) or Sm.5HTRL (KX150867), bothGPCRs being codon optimized for mammalian expression, or Hs.5HT7a (GenBank accession number NM_000872.4, R&D Systems) subcloned into pCS2(-). Cell culture reagents were from Invitrogen. Epitope tagged constructs were used to verify expression, and untagged constructs used for all luminescence assays.
For assays performed on adherent cells, HEK-293 cells were transferred one day post transfection to 96 well, solid white plates (Corning, cat # 3917) coated with 0.01% poly-L-lysine (Sigma Aldrich) at a density of 5 x 10^4 cells / well in DMEM supplemented with 1% dialyzed FBS (Gibco). […] Plates were allowed to equilibrate at room temperature for two hours prior to performing luminescence assays (GloMax-Multi Detection System plate reader, Promega). […]

CC1CCN(CC[C@H]2CCCN2S(=O)(=O)c2cccc(O)c2)CC1 [SB269970]
inhibition of Hs.5HT7R: potent inhibitors
